The numbers were not newly measured in paper PMC3314146, which cites them from elsewhere.

By UniProt entry, the sequences of proteins in these tests, tags left out. Residues count along the entry.
UniProt P43896, 56-338: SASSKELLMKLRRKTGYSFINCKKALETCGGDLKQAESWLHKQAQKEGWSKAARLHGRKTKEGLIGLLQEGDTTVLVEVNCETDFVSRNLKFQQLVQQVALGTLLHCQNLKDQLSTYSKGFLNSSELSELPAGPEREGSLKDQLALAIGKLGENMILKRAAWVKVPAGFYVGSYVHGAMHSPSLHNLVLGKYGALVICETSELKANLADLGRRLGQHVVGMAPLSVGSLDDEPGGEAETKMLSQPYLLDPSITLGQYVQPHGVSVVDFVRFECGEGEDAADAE

The target of this data set is EF-Tsmt (Bos taurus) (UniProt P43896).

By Kd is commonly meant the concentration at which binding is half-saturated. In the case of EF-Tumt (from UniProt P49410), the Kd is 5.5 nM.
